Results reported in patent publication US10584115B2, “Substituted pyridine and pyrazine BMI-1 inhibitors” (PTC Therapeutics, Inc., priority 2013, dated 2020).

System: Bmi-1 protein
Experiment: Sandwich ELISA Assay (Bmi-1 protein level in HT-1080 cells after compound treatment)
Format: cell-based
Details: read-out: ELISA EC50 value for Bmi-1 protein, Table 1, Bmi-1 sandwich ELISA
Method: Cell Seeding and Compound Treatment (Day 1):
HT-1080 cells were seeded at 8000 cells/well (50 μL) in 96-well tissue culture plates. After the cells became adherent (3-4 hours), 2× diluted stocks of test compounds in 50 μL DMEM containing 1% DMSO (final DMSO concentration was 0.5%) were added and the plates were incubated at 37° C. under 5% CO2 for 40-48 hours.
ELISA Plate First Antibody Preparation (Day 2):
The First Antibody (Millipore Mouse, monoclonal to mouse Bmi-1, clone F6, catalog #05-637) diluted to […] in PBS was added (100 μL) to each well of a Nunc MaxiSorp 96-well ELISA plate. The plate was covered with a plate seal and allowed to stand overnight.
Cell Lysate Preparation (Day 3):
Fresh Lysis buffer (1×) was prepared on the day of the assay as follows: 1 mM EDTA, 150 mM NaCl, 0.5% Triton-X 100, 10 mM NaF, 20 mM B-Glycerophosphate, 1 mM DTT (in PBS, pH 7.2-7.4) and HALT protease inhibitor cocktail (lx) (Pierce #78410).
A standard curve was prepared at the following Bmi-1 concentrations: 8000, 4000, 2000, 1000, 500, 250, 125 and 0 pg/mL. […]
The plate was washed and blotted dry, then a previously prepared TMB substrate (TMB substrate kit, Pierce catalog #34021) (prepared by mixing kit reagents 1:1) (100 μL) was added per well. […] The plates were read at OD450 (experimental) and OD570 (reference).

## COc1ccc(Nc2cncc(-c3c(C(F)(F)F)nc4ccccn34)n2)cc1 [Cpd 5, N-(4-methoxyphenyl)-6-[2-(trifluoromethyl)imidazo[1,2-a]pyridin-3-yl]pyrazin-2-amine]
  EC50: < 1 nM
